Data: patent publication US20090280112A1 (The Regents of the University of California, priority 2008, published 2009)

Sequences of proteins named here, by UniProt entry; tags and fusion partners are left off. Residues count along the entry.
UniProt P08069, 741-1367 limits assumed: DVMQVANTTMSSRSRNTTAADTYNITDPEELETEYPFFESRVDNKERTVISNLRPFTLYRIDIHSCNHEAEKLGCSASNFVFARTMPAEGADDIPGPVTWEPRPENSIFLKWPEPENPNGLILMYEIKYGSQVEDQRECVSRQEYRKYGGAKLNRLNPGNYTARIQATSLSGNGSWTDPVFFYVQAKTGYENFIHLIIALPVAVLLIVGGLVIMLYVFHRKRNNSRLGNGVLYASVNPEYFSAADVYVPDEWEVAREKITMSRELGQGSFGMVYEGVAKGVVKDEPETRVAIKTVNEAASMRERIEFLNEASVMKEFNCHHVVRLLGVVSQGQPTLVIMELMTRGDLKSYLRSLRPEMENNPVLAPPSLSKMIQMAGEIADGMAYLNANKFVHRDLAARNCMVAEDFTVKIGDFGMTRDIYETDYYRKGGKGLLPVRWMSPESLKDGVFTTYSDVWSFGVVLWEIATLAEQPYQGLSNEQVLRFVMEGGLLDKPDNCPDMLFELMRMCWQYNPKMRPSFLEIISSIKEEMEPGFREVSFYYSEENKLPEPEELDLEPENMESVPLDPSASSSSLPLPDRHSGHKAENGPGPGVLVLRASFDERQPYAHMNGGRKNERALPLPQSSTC
UniProt P08069, 31-736 partner limits assumed: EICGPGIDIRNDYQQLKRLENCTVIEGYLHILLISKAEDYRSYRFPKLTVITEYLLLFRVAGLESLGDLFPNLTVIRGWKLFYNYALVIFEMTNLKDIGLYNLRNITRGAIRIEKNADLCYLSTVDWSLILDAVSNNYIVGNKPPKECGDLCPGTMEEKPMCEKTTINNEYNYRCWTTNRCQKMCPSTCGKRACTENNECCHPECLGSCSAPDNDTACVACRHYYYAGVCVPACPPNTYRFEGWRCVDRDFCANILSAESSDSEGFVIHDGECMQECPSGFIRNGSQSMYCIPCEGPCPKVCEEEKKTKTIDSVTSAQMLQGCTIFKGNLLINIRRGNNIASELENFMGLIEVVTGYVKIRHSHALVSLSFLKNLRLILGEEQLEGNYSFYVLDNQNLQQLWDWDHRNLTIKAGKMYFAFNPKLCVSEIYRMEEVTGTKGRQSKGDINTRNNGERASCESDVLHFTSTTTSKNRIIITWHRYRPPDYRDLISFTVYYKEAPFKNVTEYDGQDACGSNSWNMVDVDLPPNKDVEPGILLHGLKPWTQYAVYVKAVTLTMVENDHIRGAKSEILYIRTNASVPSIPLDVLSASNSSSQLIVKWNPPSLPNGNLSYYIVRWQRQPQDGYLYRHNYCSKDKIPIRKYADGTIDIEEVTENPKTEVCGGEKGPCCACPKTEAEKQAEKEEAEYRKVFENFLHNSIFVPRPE

Target: T1, IGF-1 receptor (Homo sapiens, UniProt P08069)
T1 construct: the effect of this agent on the IGF-1 receptor in prostate cancer cells was studied; endogenous in cells; host or cells: LAPC-4
Assay: Ligand-stimulated IGF-1 receptor autophosphorylation in LAPC-4 cells (ELISA)
Type: cell-based
Settings: 10-minute incubation with IGF-1

stimulation of IGF-1 receptor autophosphorylation (cells incubated 1 day with DHT): very little stimulation
stimulation of IGF-1 receptor autophosphorylation (cells incubated 3 days with DHT): 2 fold
Substance: IGF-1: ligand of the IGF-1 receptor, from Insmed Corporation
